# Experiments:
# Sequences of proteins named here, by UniProt entry; tags and fusion partners are left off. A change or cut given only in a name is not applied to a line headed by its entry.
# UniProt Q9UM73: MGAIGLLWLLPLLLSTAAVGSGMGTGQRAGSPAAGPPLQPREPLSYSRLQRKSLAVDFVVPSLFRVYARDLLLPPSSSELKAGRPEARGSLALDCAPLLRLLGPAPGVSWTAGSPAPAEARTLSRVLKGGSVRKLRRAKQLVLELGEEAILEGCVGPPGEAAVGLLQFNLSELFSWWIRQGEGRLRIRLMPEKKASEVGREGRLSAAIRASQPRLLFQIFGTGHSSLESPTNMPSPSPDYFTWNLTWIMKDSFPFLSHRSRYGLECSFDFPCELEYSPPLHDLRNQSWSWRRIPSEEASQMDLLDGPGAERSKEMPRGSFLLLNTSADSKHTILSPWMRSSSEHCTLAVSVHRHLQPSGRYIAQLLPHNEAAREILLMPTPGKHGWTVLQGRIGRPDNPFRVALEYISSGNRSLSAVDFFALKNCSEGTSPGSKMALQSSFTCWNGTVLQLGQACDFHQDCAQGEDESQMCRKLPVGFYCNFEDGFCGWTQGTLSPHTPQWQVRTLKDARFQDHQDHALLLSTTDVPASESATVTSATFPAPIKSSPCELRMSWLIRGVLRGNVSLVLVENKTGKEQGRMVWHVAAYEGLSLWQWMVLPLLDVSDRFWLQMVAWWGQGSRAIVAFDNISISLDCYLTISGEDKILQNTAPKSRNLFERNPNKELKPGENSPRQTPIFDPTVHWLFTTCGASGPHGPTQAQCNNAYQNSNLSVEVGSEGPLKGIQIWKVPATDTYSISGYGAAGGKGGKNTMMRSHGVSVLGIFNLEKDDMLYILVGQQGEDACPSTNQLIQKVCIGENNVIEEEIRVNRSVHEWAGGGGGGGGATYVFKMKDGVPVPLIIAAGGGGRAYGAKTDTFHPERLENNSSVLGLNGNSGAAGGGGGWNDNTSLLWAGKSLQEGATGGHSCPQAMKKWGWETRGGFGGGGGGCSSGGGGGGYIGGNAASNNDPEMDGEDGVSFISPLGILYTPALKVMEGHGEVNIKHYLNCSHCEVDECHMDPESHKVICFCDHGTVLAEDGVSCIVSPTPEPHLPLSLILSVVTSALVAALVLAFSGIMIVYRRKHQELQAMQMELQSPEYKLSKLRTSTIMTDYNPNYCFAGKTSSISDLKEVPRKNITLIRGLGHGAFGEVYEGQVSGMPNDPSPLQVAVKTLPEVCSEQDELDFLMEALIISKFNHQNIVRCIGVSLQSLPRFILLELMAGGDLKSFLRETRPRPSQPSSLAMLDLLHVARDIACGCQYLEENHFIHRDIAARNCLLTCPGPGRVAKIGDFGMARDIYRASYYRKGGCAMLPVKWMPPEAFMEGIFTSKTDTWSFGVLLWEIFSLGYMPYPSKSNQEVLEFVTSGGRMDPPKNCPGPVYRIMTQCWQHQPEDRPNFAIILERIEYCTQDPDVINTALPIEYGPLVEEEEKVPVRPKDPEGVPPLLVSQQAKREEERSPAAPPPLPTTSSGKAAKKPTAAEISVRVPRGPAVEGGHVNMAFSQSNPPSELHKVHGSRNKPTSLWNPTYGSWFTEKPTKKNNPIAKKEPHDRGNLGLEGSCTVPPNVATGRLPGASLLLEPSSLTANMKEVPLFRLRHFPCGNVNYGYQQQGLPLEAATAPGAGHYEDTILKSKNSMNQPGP
# UniProt O14965: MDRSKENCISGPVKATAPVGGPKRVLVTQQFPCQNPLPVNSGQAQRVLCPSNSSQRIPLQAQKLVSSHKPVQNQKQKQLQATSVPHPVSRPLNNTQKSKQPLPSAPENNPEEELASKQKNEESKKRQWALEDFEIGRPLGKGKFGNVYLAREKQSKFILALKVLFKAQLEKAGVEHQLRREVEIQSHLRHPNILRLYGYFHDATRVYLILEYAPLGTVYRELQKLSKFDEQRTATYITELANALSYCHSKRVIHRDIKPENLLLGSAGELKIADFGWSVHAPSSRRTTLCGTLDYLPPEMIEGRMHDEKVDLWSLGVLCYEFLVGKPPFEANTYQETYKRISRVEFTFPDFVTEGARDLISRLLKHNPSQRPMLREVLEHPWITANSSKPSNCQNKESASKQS
# UniProt P15056, whole entry: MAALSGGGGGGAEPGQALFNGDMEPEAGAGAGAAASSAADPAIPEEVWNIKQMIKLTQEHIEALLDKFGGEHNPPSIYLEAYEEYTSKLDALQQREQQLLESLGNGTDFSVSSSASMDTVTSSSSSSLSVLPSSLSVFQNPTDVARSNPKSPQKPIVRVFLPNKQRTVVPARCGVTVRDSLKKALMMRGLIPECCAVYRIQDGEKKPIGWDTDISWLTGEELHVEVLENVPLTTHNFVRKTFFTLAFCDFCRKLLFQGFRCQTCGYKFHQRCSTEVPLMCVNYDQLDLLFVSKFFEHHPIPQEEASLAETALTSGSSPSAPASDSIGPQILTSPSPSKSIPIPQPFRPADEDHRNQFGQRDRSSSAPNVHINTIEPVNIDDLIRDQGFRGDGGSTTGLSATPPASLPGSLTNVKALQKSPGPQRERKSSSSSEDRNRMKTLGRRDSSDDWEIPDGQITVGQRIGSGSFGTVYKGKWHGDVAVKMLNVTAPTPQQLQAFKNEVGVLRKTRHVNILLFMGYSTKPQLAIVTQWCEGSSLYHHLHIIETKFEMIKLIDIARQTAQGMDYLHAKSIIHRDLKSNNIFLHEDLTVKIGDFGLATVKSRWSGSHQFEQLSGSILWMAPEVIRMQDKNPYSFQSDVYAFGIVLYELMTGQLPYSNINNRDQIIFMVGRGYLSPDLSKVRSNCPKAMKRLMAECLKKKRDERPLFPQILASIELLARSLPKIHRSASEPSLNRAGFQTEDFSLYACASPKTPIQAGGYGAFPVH
# UniProt P14635, whole entry, looked up: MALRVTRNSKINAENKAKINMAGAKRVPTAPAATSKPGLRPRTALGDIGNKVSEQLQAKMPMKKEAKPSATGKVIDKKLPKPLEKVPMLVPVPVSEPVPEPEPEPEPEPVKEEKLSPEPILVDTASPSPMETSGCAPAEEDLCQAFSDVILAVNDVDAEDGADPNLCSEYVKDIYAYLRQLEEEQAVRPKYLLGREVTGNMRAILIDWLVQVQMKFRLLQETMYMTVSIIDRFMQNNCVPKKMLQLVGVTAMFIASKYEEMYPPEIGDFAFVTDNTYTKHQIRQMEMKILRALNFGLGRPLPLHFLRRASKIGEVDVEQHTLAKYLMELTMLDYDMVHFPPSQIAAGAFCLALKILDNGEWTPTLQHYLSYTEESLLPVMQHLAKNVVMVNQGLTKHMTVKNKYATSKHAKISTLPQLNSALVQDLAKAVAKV
# UniProt P53667: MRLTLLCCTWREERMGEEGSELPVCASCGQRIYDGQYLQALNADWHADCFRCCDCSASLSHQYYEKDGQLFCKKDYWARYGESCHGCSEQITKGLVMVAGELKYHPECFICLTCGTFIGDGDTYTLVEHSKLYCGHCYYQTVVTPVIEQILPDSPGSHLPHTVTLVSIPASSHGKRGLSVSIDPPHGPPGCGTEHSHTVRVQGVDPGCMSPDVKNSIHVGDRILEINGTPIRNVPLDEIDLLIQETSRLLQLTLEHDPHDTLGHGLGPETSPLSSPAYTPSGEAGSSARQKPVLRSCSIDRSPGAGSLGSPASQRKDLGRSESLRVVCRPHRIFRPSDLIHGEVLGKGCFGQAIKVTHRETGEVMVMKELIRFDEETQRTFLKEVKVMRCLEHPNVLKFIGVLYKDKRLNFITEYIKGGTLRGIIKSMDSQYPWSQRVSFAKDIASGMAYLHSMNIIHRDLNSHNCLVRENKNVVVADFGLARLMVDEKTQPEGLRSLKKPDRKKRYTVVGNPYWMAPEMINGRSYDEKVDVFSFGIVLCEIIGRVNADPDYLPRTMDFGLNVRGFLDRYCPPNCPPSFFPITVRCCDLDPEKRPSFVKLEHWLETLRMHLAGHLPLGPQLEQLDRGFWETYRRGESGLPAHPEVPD
# UniProt Q13546: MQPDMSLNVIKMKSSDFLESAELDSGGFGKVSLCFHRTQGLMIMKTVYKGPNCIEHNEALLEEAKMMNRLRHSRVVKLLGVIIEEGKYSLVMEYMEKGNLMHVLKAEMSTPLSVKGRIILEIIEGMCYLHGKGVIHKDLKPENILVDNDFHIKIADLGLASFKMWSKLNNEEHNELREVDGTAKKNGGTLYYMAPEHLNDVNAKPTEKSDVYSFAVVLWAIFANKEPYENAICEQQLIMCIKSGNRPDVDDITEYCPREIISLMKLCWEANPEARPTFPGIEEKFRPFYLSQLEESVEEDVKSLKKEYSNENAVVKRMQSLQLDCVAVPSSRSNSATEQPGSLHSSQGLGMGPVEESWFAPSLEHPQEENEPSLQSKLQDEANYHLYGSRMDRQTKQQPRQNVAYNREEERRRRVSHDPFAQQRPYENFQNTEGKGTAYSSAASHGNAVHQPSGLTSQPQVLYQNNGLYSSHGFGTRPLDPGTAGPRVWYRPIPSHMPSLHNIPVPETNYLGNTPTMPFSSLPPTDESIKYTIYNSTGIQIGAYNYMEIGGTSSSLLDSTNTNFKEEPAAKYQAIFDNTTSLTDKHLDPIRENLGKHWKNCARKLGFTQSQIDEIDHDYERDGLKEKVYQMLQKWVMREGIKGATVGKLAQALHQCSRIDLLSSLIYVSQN
# UniProt Q9UHD2: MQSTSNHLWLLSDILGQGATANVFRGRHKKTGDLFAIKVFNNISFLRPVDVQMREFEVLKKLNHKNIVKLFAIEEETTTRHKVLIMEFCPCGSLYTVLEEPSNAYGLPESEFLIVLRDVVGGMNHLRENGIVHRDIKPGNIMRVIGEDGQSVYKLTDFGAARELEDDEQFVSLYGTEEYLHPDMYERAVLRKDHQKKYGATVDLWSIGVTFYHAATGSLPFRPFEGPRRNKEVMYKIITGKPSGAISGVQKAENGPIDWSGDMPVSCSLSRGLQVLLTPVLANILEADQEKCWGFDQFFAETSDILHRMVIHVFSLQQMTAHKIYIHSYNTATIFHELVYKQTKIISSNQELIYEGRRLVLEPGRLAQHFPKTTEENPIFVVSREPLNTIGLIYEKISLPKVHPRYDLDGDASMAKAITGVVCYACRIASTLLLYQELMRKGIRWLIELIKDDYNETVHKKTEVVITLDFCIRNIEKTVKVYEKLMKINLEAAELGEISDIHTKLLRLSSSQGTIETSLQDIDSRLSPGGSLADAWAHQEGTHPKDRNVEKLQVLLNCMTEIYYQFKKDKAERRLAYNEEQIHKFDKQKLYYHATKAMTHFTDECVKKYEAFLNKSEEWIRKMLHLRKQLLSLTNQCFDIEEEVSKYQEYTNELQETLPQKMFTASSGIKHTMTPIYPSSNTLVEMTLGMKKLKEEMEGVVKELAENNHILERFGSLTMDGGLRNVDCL
# UniProt Q02763: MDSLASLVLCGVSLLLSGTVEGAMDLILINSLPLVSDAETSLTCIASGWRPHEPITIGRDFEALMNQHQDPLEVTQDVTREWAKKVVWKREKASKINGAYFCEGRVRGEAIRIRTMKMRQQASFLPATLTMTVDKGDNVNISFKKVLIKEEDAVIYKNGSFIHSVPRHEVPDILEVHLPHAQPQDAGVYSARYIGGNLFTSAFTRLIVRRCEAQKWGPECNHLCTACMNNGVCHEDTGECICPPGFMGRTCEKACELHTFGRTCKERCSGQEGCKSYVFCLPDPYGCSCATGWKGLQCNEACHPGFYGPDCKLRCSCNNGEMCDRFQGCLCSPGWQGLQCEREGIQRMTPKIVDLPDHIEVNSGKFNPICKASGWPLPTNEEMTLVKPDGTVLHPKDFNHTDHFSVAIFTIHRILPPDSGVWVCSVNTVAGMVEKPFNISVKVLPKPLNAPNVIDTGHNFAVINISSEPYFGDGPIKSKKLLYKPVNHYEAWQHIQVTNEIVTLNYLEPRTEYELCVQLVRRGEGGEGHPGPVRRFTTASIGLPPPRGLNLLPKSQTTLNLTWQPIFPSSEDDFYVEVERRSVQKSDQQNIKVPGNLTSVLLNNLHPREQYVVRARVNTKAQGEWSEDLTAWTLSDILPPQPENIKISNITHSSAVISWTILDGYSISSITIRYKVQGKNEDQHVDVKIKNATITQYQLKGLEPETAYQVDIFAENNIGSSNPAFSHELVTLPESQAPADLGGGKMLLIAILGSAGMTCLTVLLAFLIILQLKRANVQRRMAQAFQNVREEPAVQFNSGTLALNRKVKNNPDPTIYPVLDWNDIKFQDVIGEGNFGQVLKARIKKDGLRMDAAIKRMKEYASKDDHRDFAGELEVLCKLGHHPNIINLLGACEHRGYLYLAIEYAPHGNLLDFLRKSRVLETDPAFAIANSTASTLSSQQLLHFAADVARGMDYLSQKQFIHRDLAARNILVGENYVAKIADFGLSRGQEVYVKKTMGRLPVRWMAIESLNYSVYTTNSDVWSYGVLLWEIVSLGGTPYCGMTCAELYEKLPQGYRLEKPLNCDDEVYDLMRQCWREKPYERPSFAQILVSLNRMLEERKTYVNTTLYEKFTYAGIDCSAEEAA
# [1] = biological target: ALK tyrosine kinase receptor (Homo sapiens) (UniProt Q9UM73); experiment: Inhibition of human recombinant ALK using KKKSPGEYVNIEF as substrate assessed as remaining activity in presence of [33P]-ATP measured at 1 uM after 40 mins by radiometric scintillation counting analysis relative to control
# [2] = biological target: Aurora kinase A (Homo sapiens) (UniProt O14965); experiment: Inhibition of human Aurora-A assessed as remaining activity at 1 uM by Eurofins kinase assay relative to control
# [3] = biological target: Tyrosine-protein kinase BTK (Homo sapiens) (UniProt Q06187); experiment: Inhibition of human BTK assessed as remaining activity at 1 uM by Eurofins kinase assay relative to control
# [4] = biological target: Serine/threonine-protein kinase B-raf (Homo sapiens) (UniProt P15056); experiment: Inhibition of human B-Raf assessed as remaining activity at 1 uM by Eurofins kinase assay relative to control
# [5] = biological target: Cyclin-dependent kinase 1/cyclin B1 (Homo sapiens) (UniProt P06493+P14635); experiment: Inhibition of human CDK1/cyclinB assessed as remaining activity at 1 uM by Eurofins kinase assay relative to control; type: protein-complex assay
# [6] = biological target: Serine/threonine-protein kinase Chk2 (Homo sapiens) (UniProt O96017); experiment: Inhibition of human CHK2 assessed as remaining activity at 1 uM by Eurofins kinase assay relative to control
# [7] = biological target: Mast/stem cell growth factor receptor Kit (Homo sapiens) (UniProt P10721); experiment: Inhibition of human cKit assessed as remaining activity at 1 uM by Eurofins kinase assay relative to control
# [8] = biological target: Epidermal growth factor receptor (Homo sapiens) (UniProt P00533); experiment: Inhibition of human EGFR assessed as remaining activity at 1 uM by Eurofins kinase assay relative to control
# [9] = biological target: Vascular endothelial growth factor receptor 1 (Homo sapiens) (UniProt P17948); experiment: Inhibition of human Flt1 assessed as remaining activity at 1 uM by Eurofins kinase assay relative to control
# [10] = test system: Receptor-type tyrosine-protein kinase FLT3 (Homo sapiens), P36888 [D835Y]; experiment: Inhibition of human Flt3 (D835Y) mutant assessed as remaining activity at 1 uM by Eurofins kinase assay relative to control
# [11] = biological target: Glycogen synthase kinase-3 alpha (Homo sapiens) (UniProt P49840); experiment: Inhibition of human GSK3a assessed as remaining activity at 1 uM by Eurofins kinase assay relative to control
# [12] = biological target: Tyrosine-protein kinase JAK1 (Homo sapiens) (UniProt P23458); experiment: Inhibition of human JAK1 assessed as remaining activity at 1 uM by Eurofins kinase assay relative to control
# [13] = biological target: LIM domain kinase 1 (Homo sapiens) (UniProt P53667); experiment: Inhibition of human LIMK1 assessed as remaining activity at 1 uM by Eurofins kinase assay relative to control
# [14] = biological target: Dual specificity mitogen-activated protein kinase kinase 1 (Homo sapiens) (UniProt Q02750); experiment: Inhibition of human MEK1 assessed as remaining activity at 1 uM by Eurofins kinase assay relative to control
# [15] = biological target: Hepatocyte growth factor receptor (Homo sapiens) (UniProt P08581); experiment: Inhibition of human Met assessed as remaining activity at 1 uM by Eurofins kinase assay relative to control
# [16] = biological target: Serine/threonine-protein kinase mTOR (Homo sapiens) (UniProt P42345); experiment: Inhibition of human mTOR assessed as remaining activity at 1 uM by Eurofins kinase assay relative to control
# [17] = biological target: Serine/threonine-protein kinase Nek1 (Homo sapiens) (UniProt Q96PY6); experiment: Inhibition of human NEK1 assessed as remaining activity at 1 uM by Eurofins kinase assay relative to control
# [18] = biological target: Serine/threonine-protein kinase pim-1 (Homo sapiens) (UniProt P11309); experiment: Inhibition of human Pim-1 assessed as remaining activity at 1 uM by Eurofins kinase assay relative to control
# [19] = biological target: Serine/threonine-protein kinase PLK1 (Homo sapiens) (UniProt P53350); experiment: Inhibition of human Plk1 assessed as remaining activity at 1 uM by Eurofins kinase assay relative to control
# [20] = biological target: Proto-oncogene tyrosine-protein kinase receptor Ret (Homo sapiens) (UniProt P07949); experiment: Inhibition of human Ret assessed as remaining activity at 1 uM by Eurofins kinase assay relative to control
# [21] = biological target: Receptor-interacting serine/threonine-protein kinase 1 (Homo sapiens) (UniProt Q13546); experiment: Inhibition of human RIPK1 assessed as remaining activity at 1 uM by Eurofins kinase assay relative to control
# [22] = biological target: Receptor-interacting serine/threonine-protein kinase 2 (Homo sapiens) (UniProt O43353); experiment: Inhibition of human RIPK2 assessed as remaining activity at 1 uM by Eurofins kinase assay relative to control
# [23] = biological target: Macrophage-stimulating protein receptor (Homo sapiens) (UniProt Q04912); experiment: Inhibition of human Ron assessed as remaining activity at 1 uM by Eurofins kinase assay relative to control
# [24] = biological target: Proto-oncogene tyrosine-protein kinase ROS (Homo sapiens) (UniProt P08922); experiment: Inhibition of human Ros assessed as remaining activity at 1 uM by Eurofins kinase assay relative to control
# [25] = biological target: Proto-oncogene tyrosine-protein kinase Src (Homo sapiens) (UniProt P12931); experiment: Inhibition of human Src (1-530) assessed as remaining activity at 1 uM by Eurofins kinase assay relative to control
# [26] = biological target: Serine/threonine-protein kinase 25 (Homo sapiens) (UniProt O00506); experiment: Inhibition of human STK25 assessed as remaining activity at 1 uM by Eurofins kinase assay relative to control
# [27] = biological target: Tyrosine-protein kinase SYK (Homo sapiens) (UniProt P43405); experiment: Inhibition of human Syk assessed as remaining activity at 1 uM by Eurofins kinase assay relative to control
# [28] = biological target: Serine/threonine-protein kinase TBK1 (Homo sapiens) (UniProt Q9UHD2); experiment: Inhibition of human TBK1 assessed as remaining activity at 1 uM by Eurofins kinase assay relative to control
# [29] = biological target: Angiopoietin-1 receptor (Homo sapiens) (UniProt Q02763); experiment: Inhibition of human Tie2 assessed as remaining activity at 1 uM by Eurofins kinase assay relative to control
# [30] = biological target: Non-receptor tyrosine-protein kinase TYK2 (Homo sapiens) (UniProt P29597); experiment: Inhibition of human TYK2 assessed as remaining activity at 1 uM by Eurofins kinase assay relative to control
# [31] = biological target: Wee1-like protein kinase (Homo sapiens) (UniProt P30291); experiment: Inhibition of human Wee1 assessed as remaining activity at 1 uM by Eurofins kinase assay relative to control
compound,measurement,setting,value
C[C@@H](Nc1c[nH]c(=O)c(C(=O)Nc2ccc(CN3CCN(C)CC3)cc2)c1)c1c(Cl)ccc(F)c1Cl,Activity,[1],91%
same,Activity,[2],50%
same,Activity,[3],98%
same,Activity,[4],89%
same,Activity,[5],102%
same,Activity,[6],100%
same,Activity,[7],108%
same,Activity,[8],108%
same,Activity,[9],97%
same,Activity,[10],103%
same,Activity,[11],100%
same,Activity,[12],85%
same,Activity,[13],62%
same,Activity,[14],98%
same,Activity,[15],87%
same,Activity,[16],95%
same,Activity,[17],102%
same,Activity,[18],107%
same,Activity,[19],109%
same,Activity,[20],98%
same,Activity,[21],103%
same,Activity,[22],102%
same,Activity,[23],86%
same,Activity,[24],90%
same,Activity,[25],86%
same,Activity,[26],114%
same,Activity,[27],109%
same,Activity,[28],107%
same,Activity,[29],92%
same,Activity,[30],77%
same,Activity,[31],102%

# — ChEMBL document CHEMBL5537184, “Discovery, Optimization, and Evaluation of Novel Pyridin-2(1H)-one Analogues as Potent TRK Inhibitors for Cancer Treatment” (J Med Chem, 2024)
